By UniProt entry, the sequences of proteins in these tests, tags left out. Where a name states a change or a piece, a line headed by the entry shows the natural chain unless it says otherwise.
UniProt P35968, whole entry: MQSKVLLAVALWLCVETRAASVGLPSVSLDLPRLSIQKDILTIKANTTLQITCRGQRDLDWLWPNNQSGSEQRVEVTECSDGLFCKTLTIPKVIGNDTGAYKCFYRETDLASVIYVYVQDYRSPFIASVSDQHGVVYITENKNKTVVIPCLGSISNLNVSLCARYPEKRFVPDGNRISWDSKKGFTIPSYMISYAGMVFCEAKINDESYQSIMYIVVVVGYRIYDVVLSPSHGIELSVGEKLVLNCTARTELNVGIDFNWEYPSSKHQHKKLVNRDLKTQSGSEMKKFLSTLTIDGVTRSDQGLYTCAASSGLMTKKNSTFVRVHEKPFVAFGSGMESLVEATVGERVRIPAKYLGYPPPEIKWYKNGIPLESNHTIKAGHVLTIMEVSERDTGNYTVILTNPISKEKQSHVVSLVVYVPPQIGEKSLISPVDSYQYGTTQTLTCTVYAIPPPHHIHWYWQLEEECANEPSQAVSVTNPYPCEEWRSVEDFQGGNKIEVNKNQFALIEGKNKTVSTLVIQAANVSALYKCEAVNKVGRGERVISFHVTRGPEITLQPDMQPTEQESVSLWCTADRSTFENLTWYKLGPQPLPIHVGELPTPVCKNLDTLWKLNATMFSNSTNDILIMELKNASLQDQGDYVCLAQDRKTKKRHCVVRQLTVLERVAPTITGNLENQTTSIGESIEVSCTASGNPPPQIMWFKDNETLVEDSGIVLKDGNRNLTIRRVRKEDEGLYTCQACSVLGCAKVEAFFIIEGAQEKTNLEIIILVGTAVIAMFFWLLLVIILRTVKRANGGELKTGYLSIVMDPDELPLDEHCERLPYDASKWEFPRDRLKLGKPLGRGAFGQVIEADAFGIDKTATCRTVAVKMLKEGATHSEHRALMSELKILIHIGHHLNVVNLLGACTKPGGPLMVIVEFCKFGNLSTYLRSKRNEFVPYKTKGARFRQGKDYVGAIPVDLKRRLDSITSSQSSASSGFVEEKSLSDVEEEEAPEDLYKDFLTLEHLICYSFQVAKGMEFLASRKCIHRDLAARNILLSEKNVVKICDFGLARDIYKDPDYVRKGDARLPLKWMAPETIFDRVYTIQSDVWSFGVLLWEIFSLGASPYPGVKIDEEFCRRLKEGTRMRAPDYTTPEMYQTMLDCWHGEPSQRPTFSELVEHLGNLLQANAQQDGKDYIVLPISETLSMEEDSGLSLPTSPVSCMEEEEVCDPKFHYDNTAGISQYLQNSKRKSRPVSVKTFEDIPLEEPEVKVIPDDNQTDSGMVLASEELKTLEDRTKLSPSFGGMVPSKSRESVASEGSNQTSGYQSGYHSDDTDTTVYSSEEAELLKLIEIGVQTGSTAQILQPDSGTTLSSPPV
UniProt Q02763: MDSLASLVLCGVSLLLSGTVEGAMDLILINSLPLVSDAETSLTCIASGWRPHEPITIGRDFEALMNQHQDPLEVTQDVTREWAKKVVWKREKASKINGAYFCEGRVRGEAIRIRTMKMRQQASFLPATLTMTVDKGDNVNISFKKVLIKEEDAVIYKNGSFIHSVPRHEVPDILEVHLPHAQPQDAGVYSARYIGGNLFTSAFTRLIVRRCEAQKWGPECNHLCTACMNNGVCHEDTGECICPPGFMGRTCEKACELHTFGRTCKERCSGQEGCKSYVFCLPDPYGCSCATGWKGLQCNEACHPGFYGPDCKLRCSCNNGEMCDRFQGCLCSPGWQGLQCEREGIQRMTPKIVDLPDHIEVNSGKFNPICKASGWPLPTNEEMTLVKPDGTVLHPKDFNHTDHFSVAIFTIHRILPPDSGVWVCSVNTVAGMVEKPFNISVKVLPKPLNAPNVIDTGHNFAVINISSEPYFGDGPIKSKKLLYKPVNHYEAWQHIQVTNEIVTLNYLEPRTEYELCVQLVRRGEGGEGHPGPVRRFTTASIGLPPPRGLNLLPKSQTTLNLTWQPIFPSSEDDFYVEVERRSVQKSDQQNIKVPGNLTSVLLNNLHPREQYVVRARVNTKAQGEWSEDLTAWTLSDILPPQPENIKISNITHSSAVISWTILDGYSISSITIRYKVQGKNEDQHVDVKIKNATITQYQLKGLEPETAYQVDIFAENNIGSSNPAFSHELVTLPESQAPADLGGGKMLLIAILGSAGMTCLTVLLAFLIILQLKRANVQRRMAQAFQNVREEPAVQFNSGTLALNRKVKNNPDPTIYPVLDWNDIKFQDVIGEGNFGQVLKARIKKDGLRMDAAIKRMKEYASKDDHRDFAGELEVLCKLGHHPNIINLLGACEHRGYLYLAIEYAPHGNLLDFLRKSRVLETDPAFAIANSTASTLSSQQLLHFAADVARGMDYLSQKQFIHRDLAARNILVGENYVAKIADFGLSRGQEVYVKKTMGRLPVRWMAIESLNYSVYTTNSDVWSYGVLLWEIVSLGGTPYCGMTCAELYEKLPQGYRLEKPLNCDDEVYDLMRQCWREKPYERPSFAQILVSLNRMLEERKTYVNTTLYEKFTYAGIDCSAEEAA
UniProt P06239: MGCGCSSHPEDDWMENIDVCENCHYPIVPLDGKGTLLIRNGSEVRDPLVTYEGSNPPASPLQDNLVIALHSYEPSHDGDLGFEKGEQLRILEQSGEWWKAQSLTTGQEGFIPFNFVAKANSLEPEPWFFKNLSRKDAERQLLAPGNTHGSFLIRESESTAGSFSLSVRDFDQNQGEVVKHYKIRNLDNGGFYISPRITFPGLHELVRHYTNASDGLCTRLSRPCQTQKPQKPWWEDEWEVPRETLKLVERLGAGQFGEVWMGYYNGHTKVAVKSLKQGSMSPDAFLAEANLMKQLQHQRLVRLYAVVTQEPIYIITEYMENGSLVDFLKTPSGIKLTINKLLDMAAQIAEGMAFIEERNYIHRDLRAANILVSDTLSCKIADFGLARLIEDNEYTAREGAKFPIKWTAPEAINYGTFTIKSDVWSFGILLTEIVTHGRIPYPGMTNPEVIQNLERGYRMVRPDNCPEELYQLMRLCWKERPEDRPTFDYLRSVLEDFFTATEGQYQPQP

In ChEMBL document CHEMBL1144028, “Novel 2,3-dihydro-1,4-benzoxazines as potent and orally bioavailable inhibitors of tumor-driven angiogenesis” (J Med Chem, 2008):

Key:
[1] = molecular target: Vascular endothelial growth factor receptor 2 (Homo sapiens, UniProt P35968); test: Inhibition of KDR by HTRF assay
Procedure, shortened: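 KDR read by homogeneous time-resolved fluorescence with a biotinylated gastrin substrate. IC50 is the mean of two or more separate determinations, each in duplicate.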

[2] = molecular target: Angiopoietin-1 receptor (Homo sapiens, UniProt Q02763); test: Inhibition of Tie2
[3] = molecular target: Tyrosine-protein kinase Lck (Homo sapiens, UniProt P06239); test: Inhibition of Lck

## COc1cc2nccc(Oc3ccc4c(C(=O)Nc5ccc(Cl)cc5)cccc4c3)c2cc1OC
[1]
  IC50: 0.03 nM

## COc1cc2nccc(Oc3ccc4c(c3)OCCN4C(=O)Nc3cccc(C)c3)c2cc1OC
[1]
  IC50: 1 nM
[2]
  IC50: 1 nM
[3]
  IC50: 1 nM
